According to article PMC9742514 (2022):

Molecular target: GST-SOCS2/BC trimeric complex (GST-human SOCS2 residues 32-198 with Elongin B and Elongin C) (human, UniProt O14508 32-198; Q15370 1-118; Q15369 17-112)
Assay: SPR

## PVPDYTSIHIV (phosphotyrosine at 595) [GHR pY595 competitor peptide (phosphopeptide derived from growth hormone receptor Tyr595)]
  IC50: 1100 nM
